# Experimental data from patent US5840697A, “Peptide inhibitors of calmodulin” (Torrey Pines Institute for Molecular Studies, priority 1996, dated 1998).
# Target: calmodulin (Homo sapiens, UniProt P0DP23)
# Assay: electrophoretic band shift assay of peptide-calmodulin complexes
# Type: binding
# Procedure: The following samples were subjected to electrophoresis in the gel lane indicated:
# Because melittin is known to bind to calmodulin as described, for example, in Comte et al., Biochem. J., 209:269-272 (1983), in the above samples melittin is the positive control. The samples were incubated with calmodulin at 22° C. for 1 hr, and electrophoresed on a 10% acrylamide gel in Tris-glycine buffer under nondenaturating conditions as described in Head and Perry, Biochem. J., 137:145-154 (1974), which is incorporated herein by reference. The gel was then stained with coomasie blue.
# The band shifts were also measured using a densitometer. Determination of band width by densitometry was done on the following samples: (1) calmodulin (1 nmol)+EDTA (2 nmol); (2) calmodulin (1 nmol)+Ca^2+ (1 nmol)+Ac-(D)Leu-(D)Trp-(D)Arg-(D)Ile-(D)Leu-(D)Trp-NH2 (100 nmol); and (3) calmodulin (1 nmol)+Ca^2+ (1 nmol).
smiles,measurement,setting,value
"CC[C@H](C)[C@H](NC(=O)CN)C(=O)NCC(=O)N[C@@H](C)C(=O)N[C@H](C(=O)N[C@@H](CC(C)C)C(=O)N[C@@H](CCCCN)C(=O)N[C@H](C(=O)N[C@@H](CC(C)C)C(=O)N[C@H](C(=O)N[C@H](C(=O)NCC(=O)N[C@@H](CC(C)C)C(=O)N1CCC[C@H]1C(=O)N[C@@H](C)C(=O)N[C@@H](CC(C)C)C(=O)N[C@H](C(=O)N[C@@H](CO)C(=O)N[C@@H](Cc1c[nH]c2ccccc12)C(=O)N[C@H](C(=O)N[C@@H](CCCCN)C(=O)N[C@@H](CCCNC(=N)N)C(=O)N[C@@H](CCCCN)C(=O)N[C@@H](CCCNC(=N)N)C(=O)N[C@@H](CCC(N)=O)C(=O)N[C@@H](CCC(N)=O)C(N)=O)[C@@H](C)CC)[C@@H](C)CC)[C@@H](C)O)[C@@H](C)O)C(C)C)C(C)C [melittin, reference compound]",band shift (mobility change) on binding to calmodulin,in the presence of Ca2+,shifted as compared to lane 8
same,band shift (mobility change) on binding to calmodulin,with EDTA (no calcium),no band shift
